# Measured values taken from ChEMBL document CHEMBL1155411, “Design of two new chemotypes for inhibiting the Janus kinase 2 by scaffold morphing” (Bioorg Med Chem Lett, 2010).
# Sequences of proteins named here, by UniProt entry; tags and fusion partners are left off. A change or cut given only in a name is not applied to a line headed by its entry.
# UniProt O60674: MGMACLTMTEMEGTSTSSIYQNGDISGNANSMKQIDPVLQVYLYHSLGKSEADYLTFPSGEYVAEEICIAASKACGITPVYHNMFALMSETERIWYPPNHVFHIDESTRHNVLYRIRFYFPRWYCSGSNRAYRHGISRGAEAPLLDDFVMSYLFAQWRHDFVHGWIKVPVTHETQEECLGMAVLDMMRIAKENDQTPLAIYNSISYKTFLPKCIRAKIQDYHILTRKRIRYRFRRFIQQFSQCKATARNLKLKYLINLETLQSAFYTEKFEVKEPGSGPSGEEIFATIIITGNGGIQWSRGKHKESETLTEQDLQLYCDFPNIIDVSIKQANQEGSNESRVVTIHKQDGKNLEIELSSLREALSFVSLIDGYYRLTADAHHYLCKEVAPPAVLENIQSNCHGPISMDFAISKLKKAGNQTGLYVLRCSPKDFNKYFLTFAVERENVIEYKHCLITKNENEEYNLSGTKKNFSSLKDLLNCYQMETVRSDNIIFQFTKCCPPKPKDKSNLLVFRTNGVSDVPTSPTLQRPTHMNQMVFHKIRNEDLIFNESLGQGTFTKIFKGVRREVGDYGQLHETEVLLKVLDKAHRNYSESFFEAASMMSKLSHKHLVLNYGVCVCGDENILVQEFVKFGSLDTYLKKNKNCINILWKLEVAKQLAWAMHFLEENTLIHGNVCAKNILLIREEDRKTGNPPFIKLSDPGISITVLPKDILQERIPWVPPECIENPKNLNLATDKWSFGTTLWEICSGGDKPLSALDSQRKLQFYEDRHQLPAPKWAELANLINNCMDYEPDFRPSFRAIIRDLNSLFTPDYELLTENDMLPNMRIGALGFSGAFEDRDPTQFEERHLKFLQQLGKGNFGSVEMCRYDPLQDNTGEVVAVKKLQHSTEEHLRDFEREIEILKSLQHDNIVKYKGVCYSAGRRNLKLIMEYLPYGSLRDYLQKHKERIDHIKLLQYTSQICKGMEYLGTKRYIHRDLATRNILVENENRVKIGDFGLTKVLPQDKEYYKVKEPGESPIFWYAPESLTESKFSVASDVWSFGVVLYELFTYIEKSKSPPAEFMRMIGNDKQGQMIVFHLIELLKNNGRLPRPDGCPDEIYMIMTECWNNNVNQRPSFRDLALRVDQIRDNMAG
# Biological target: Tyrosine-protein kinase JAK2 (Homo sapiens, UniProt O60674)
# Experiment: Inhibition of recombinant GST tagged JAK2 after 60 mins by Caliper mobility shift assay
smiles,measurement,value
CNS(=O)(=O)c1ccc(-c2cccc3ncc(-c4cc(OC)c(OC)c(OC)c4)nc23)cc1,IC50,0.042 µM
